Conditions: male, human, in vivo
Method: Additional samples were collected prior to dosing on days 8, 15, 21, and 57 (Fig. 1A). Samples were centrifuged at approximately 1,000 × g, and plasma was stored at −70 °C or colder until analysis.
Plasma PK parameters were derived from the data by non-compartmental methods with WinNonlin (Certara, Princeton, NJ). Statistical analyses for PK parameter values were performed using SPSS 27.0 for Windows (SPSS Inc., Chicago, IL). Within patient variability in Cmin was calculated from the day 8 through day 57 data across doses by calculating 100 × the square root of the mean square within groups obtained after ANOVA of log-transformed values of these parameters with subject as a factor.

For `CNC(=O)c1ccc(N2C(=S)N(c3ccc(C#N)c(C(F)(F)F)c3)C(=O)C2(C)C)cc1F` [enzalutamide], the “ENZA Cmin D0” value was 11.7 (1.19) µg/mL, the “MR (metabolic ratio) D0” value was 0.94 (1.43) and the “MR (metabolic ratio) D1” value (24 h) was 0.95 (1.48).
